Measured affinities in a library of Ab-14 heavy chain variants

All variants were tested on one target, the spike HR2 peptide PDVDLGDISGINAS (SARS-CoV-2).

Ab-14 is the parent antibody, in scFv form: VH, then three GGGGS repeats, then VL. The light chain is unchanged in all variants.
VH: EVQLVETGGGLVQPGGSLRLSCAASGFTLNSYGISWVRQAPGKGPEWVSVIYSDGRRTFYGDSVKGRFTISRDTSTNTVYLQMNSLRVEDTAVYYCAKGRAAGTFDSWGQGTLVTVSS
VL: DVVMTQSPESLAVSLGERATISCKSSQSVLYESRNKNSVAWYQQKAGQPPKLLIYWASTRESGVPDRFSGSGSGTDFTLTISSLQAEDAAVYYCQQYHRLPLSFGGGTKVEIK

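Phage display of a naive human antibody library on the peptide gave the parent. Designed CDR sequences, proposed from the first random library and measured here. Several design methods are mixed in this list. The scFvs were displayed on barcoded MATa yeast, the peptide on MATalpha yeast. Binding brings cells together so that they mate, and sequencing counts the barcode pairs among the diploids. Each replicate has its own calibration line, from reference interactions of the BCL2 family. Each pool was mated in six replicate cultures.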

Each variant is given by its three heavy chain CDRs, as the data file delimits them; those of the parent are GFTLNSYGIS, VIYSDGRRTFYGDSVK, GRAAGTFDS. The Kd shown is the geometric mean over detected replicates; a lower Kd is a better binder. A pair that was not seen in any replicate is written "no signal"; this usually means weak binding, but a binder can also be missed. Order: sorted from the lowest average up, undetected variants last. Of ten entries with the parent sequence, four were seen in most replicates (averages 2.2 nM to 240 nM), three in one and three in none, so single entries are noisy.

| CDR-H1 | CDR-H2 | CDR-H3 | Kd (apparent) | replicates with signal | empty controls |
|---|---|---|---|---|---|
| GFDLNEYGIS | VIYADGMRTFYADSVK | GQIAGTFDF | 86 pM | 6 of 6 | 0 of 18 |
| GFDLNEYGIS | VIYADGRRTAYTDSVK | GNVAGTFDQ | 200 pM | 6 of 6 | 0 of 18 |
| GFDLEDYGIS | VIYADGMRTAYADNVK | GEVAGTFDV | 250 pM | 6 of 6 | 0 of 18 |
| GFDLNEYGIS | VIYADGVRKAYADSVK | GNQAGTFDV | 250 pM | 6 of 6 | 1 of 18 |
| GFDLNEYGIS | VIYADGRRTFYIDSVK | GNNAGTFDV | 260 pM | 6 of 6 | 0 of 18 |
| GFNLDEYGIS | VIYADGMRTAYSDSVK | GNVAGTFDI | 300 pM | 6 of 6 | 0 of 18 |
| GFDLNEYGIS | VIYADGVRKAYADSVK | GNNAGTFDL | 340 pM | 6 of 6 | 0 of 18 |
| GFDLNEYGIS | VIYADGRRTFYTDSVK | GQLAGTFDL | 350 pM | 6 of 6 | 0 of 18 |
| GFDLDEYGIS | VIYADGMRTFYIDSVK | GETAGTFDS | 360 pM | 6 of 6 | 0 of 18 |
| GFDLNEYGIS | VIYADGRRTAYIDSVK | GEVAGTFDQ | 380 pM | 6 of 6 | 1 of 18 |
| GFDLNEYGIS | VIYADGRRTAYSDSVK | GNVAGTFDT | 400 pM | 6 of 6 | 0 of 18 |
| GFDLNEYGIS | VIYADGVRTAYADSVK | GVNAGTFDI | 460 pM | 6 of 6 | 0 of 18 |
| GFDLNEYGIS | VIYADGMRTAYADDVK | GNEAGTFDQ | 460 pM | 6 of 6 | 1 of 18 |
| GFDLNEYGIS | VIYADGRRTSYADSVK | GQNAGTFDQ | 610 pM | 6 of 6 | 1 of 18 |
| GFDLNEYGIS | VIYADGVRTAYSDSVK | GETAGTFDQ | 680 pM | 6 of 6 | 0 of 18 |
| GFDLNEYGIS | VIYADGVRTAYADSVK | GSNAGTFDL | 690 pM | 6 of 6 | 0 of 18 |
| GFDLNEYGIS | VIYADGVRTFYADSVK | GNQAGTFIS | 720 pM | 6 of 6 | 0 of 18 |
| GFSLNEYGIS | VIYSDGRRTFYGDSVK | GRAAGTFIF | 810 pM | 2 of 6 | 0 of 18 |
| GFDLNSYGIS | VIYSDGRRTFYIDSVK | GRAAGTFDT | 990 pM | 6 of 6 | 0 of 18 |
| GFTLNEYGIS | VIYSDGRRTFYEDSVK | GRTAGTFDS | 1.2 nM | 6 of 6 | 0 of 18 |
| GFDLNKYGIS | VIYSDGRRTFYGDSVK | GRAAGTFDS | 1.2 nM | 6 of 6 | 1 of 18 |
| GFELNEYGIS | VIYSDGRRTFYGDSVK | GWTAGTFDS | 1.3 nM | 6 of 6 | 0 of 18 |
| GFDLNEYGIS | VIYADGRRTFYSDSVK | GQNGGTFDM | 1.4 nM | 6 of 6 | 1 of 18 |
| GFTLNDYGIS | VIYSDGRRTMYADSVK | GRAAGTFDS | 1.6 nM | 5 of 6 | 0 of 18 |
| GFDLNEYGIS | VIYADGMRTFYTDSVK | GEGAGTFDS | 1.7 nM | 6 of 6 | 0 of 18 |
| GFELNSYGIS | VIYSDGRRTFYGDNVK | GMTAGTFDS | 2.1 nM | 6 of 6 | 1 of 18 |
| GFDLNSYGIS | VIYSDGRRTFYGDAFK | GRTAGTFDS | 2.2 nM | 6 of 6 | 0 of 18 |
| GFELNSYGIS | VIYADGRRTFYGDSVK | GRVAGTFDS | 2.3 nM | 6 of 6 | 0 of 18 |
| GFTLQSYGIS | VIYSDGRRTFYGDSVK | GRWAGTFDS | 2.8 nM | 1 of 6 | 0 of 18 |
| GFWLNEYGIS | VIYSDGRRTFYGDSVK | GKTAGTFDL | 2.9 nM | 5 of 6 | 0 of 18 |
| GFTLNSYGIS | VIYSDGRRTFYSDSVK | GRTGGTFDT | 4.1 nM | 6 of 6 | 0 of 18 |
| YFTLNSYGIS | VIYADGRRTFYGDSVK | GKAAGTFDS | 4.1 nM | 1 of 6 | 0 of 18 |
| GFGLNDYGIS | VIYSDGRRTHYIDSVK | GRAAGTFDS | 4.2 nM | 6 of 6 | 0 of 18 |
| GFPLNSYGIS | VIYADGRRTFYGDSVK | GRAAGTFDS | 4.5 nM | 6 of 6 | 1 of 18 |
| GFDLNSYGIS | VIYSDGRRTFYTDSVK | GNAAGTFDS | 4.7 nM | 6 of 6 | 0 of 18 |
| SFTLNSYGIS | VIYADGRRTFYGDSVK | GRTAGTFDS | 4.9 nM | 6 of 6 | 0 of 18 |
| GFTLESYGIS | VIYSDGRRTFYGDSVK | GRSAGTFDS | 5.0 nM | 1 of 6 | 0 of 18 |
| GFTLESYGIS | VIYSDGKRTFYADSVK | GRAAGTFDS | 6.6 nM | 6 of 6 | 0 of 18 |
| GFDLNEYGIS | VIYADGRRTFYIDSVK | GEAAGTFVM | 7.3 nM | 6 of 6 | 0 of 18 |
| GFQLNSYGIS | VIYSDGRRTAYGDSVK | GRAAGTFDS | 7.3 nM | 6 of 6 | 0 of 18 |
| MFDLNSYGIS | VIYSDGRRTFYGDSVK | GEAAGTFDK | 7.6 nM | 6 of 6 | 0 of 18 |
| GFDLNSYGIS | VIYSDGRRTFYADMVK | GQTAGTFDS | 8.9 nM | 6 of 6 | 0 of 18 |
| GFDLDEYGIS | VIYADGARKSYTNSVK | GVWGTTMYV | 9.1 nM | 5 of 6 | 0 of 18 |
| GFELNEYGIS | VIYSDGRRTFYTDSVK | GRAAGTFDS | 10 nM | 6 of 6 | 0 of 18 |
| GFTLNSYGIS | VIYSDGRRTFYGDSVK | GEAAGTFDK | 15 nM | 5 of 6 | 0 of 18 |
| GFHLNSYGIS | VIYSDGRRTAYQDSVK | GRAAGTFDS | 19 nM | 6 of 6 | 1 of 18 |
| GFQLNEYGIS | VIYSDGRRTFYGDSVK | GRAAGTFDF | 21 nM | 6 of 6 | 2 of 18 |
| GFNLNSYGIS | VIYSDGRRTFYIDSVK | GQAAGTFDT | 36 nM | 6 of 6 | 0 of 18 |
| GFTLNDYGIS | VIYSDGRRTFYADSVK | GRAAGTFTS | 40 nM | 6 of 6 | 0 of 18 |
| GFTLNSYGIS | VIYSDGRRTFYADSVK | GRAAWTFDS | 100 nM | 1 of 6 | 0 of 18 |
| EFDLNEYGVS | VIYADGHRTFYADHVK | GQEAGVFFD | 100 nM | 2 of 6 | 0 of 18 |
| GYTLNEYGIS | VIYSDGRRTFYGDSVK | GRAAVTFDK | 170 nM | 1 of 6 | 1 of 18 |
| GFTLNSYGIS | VIYSDGRRTFYVDSVK | GKAAGTFDS | 270 nM | 2 of 6 | 0 of 18 |
| GFDLDEYGVS | VIYADGRRSKYADSVK | GTTGGTINA | 510 nM | 2 of 6 | 0 of 18 |
| GFMLNEYGIS | VIYSDGRRVFYGDSTR | GRAAGTFDS | 800 nM | 2 of 6 | 1 of 18 |
| GFWLNSYGIQ | VIYSDGRRTFYGDSVK | GREAGTFDS | no signal | 0 of 6 | 0 of 18 |
| KFNLNSYGIS | VIYSDGRRTFYQDSVK | GEAAGTFDS | no signal | 0 of 6 | 0 of 18 |
| GFDLNSYGIS | VIYSDGRRTFYGDSVK | GRAAWTFQS | no signal | 0 of 6 | 0 of 18 |
| GFRLNSYGIS | VIYSDGRRTFYDDDVK | GQTAGTFDS | no signal | 0 of 6 | 0 of 18 |
| GNDLNEYGIS | VIYADGSRTSYIEKVK | GLVGGMLIV | no signal | 0 of 6 | 0 of 18 |
| GFTLNSYGIS | VIYSDGRRTMYGDSVK | GRAAHTFDS | no signal | 0 of 6 | 0 of 18 |
| GRTLNSYGIS | VIYSDGRRTFYGDSVK | GRAAGTFRS | no signal | 0 of 6 | 0 of 18 |
| GFNLDEYGIS | VIYADGVRTQYAQSFK | GMNNGYIAG | no signal | 0 of 6 | 0 of 18 |
| GFTLNEYGIS | VIYSDGRRTFYGDDVK | GRAAVTFDM | no signal | 0 of 6 | 0 of 18 |
| GKSLDEYGIS | VIYADGLRTQYSNKVK | GLEGFAFDQ | no signal | 0 of 6 | 2 of 18 |
| GFNLDEYGIS | VIYADGGRVAYAQNVK | GLVGKGGDL | no signal | 0 of 6 | 0 of 18 |
| GFLLNDYGIS | VIYSDGRRTFYKDSVK | GRAASTFIS | no signal | 0 of 6 | 0 of 18 |
| GETANSYGIS | VIYSDGRRTFYGDSVK | GRVAGTDDS | no signal | 0 of 6 | 3 of 18 |
| GFTLNEYVIS | VIYSDGRRTFYGDSVK | GRAAVTFDQ | no signal | 0 of 6 | 0 of 18 |
| GFTLNSHGIS | VIYSDGRRTFYADSVK | GRAAGTFDS | no signal | 0 of 6 | 0 of 18 |
| GFTLKSYGIS | VIYSDGRRTFYVDSVK | GKLAGTFDS | no signal | 0 of 6 | 0 of 18 |
| GFDIEEYGIS | VIYADGQRKSYIDSFK | GQNNGIGMY | no signal | 0 of 6 | 0 of 18 |
| SFSLNSYGIS | VIYSDGRRTFYGDSVK | GQAAGTFDK | no signal | 0 of 6 | 0 of 18 |
| GGDIQDYGIS | VIYADGQRASYADEVK | GNIGGIFST | no signal | 0 of 6 | 0 of 18 |
| GFNLEEYGIS | VIYADGFRAAYQQKVK | GQDGLVGMD | no signal | 0 of 6 | 0 of 18 |
| GFTINSYGIH | VIYSDGRRTFYGDDVK | GRNAGTKDS | no signal | 0 of 6 | 0 of 18 |
| RFTLNSYGIS | VIYSDGRRTFYGDSVK | GRAAGTSDS | no signal | 0 of 6 | 0 of 18 |
| GVTLNDYGKS | VIYSDGRRTFYGDSVK | GRAALHFIS | no signal | 0 of 6 | 0 of 18 |
| GFDLLEYGIS | VIYADGQRVAYKNNVK | GKNGATFSN | no signal | 0 of 6 | 0 of 18 |
| GESLKEYGIS | VIYADGMRNAYASKVK | GKVSGVFNI | no signal | 0 of 6 | 0 of 18 |

Top 11 of the variants detected in all replicates, tightest first:

CDR-H1,CDR-H2,CDR-H3,Kd (apparent),replicates with signal,empty controls
GFDLNEYGIS,VIYADGMRTFYADSVK,GQIAGTFDF,86 pM,6 of 6,0 of 18
GFDLNEYGIS,VIYADGRRTAYTDSVK,GNVAGTFDQ,200 pM,6 of 6,0 of 18
GFDLEDYGIS,VIYADGMRTAYADNVK,GEVAGTFDV,250 pM,6 of 6,0 of 18
GFDLNEYGIS,VIYADGVRKAYADSVK,GNQAGTFDV,250 pM,6 of 6,1 of 18
GFDLNEYGIS,VIYADGRRTFYIDSVK,GNNAGTFDV,260 pM,6 of 6,0 of 18
GFNLDEYGIS,VIYADGMRTAYSDSVK,GNVAGTFDI,300 pM,6 of 6,0 of 18
GFDLNEYGIS,VIYADGVRKAYADSVK,GNNAGTFDL,340 pM,6 of 6,0 of 18
GFDLNEYGIS,VIYADGRRTFYTDSVK,GQLAGTFDL,350 pM,6 of 6,0 of 18
GFDLDEYGIS,VIYADGMRTFYIDSVK,GETAGTFDS,360 pM,6 of 6,0 of 18
GFDLNEYGIS,VIYADGRRTAYIDSVK,GEVAGTFDQ,380 pM,6 of 6,1 of 18
GFDLNEYGIS,VIYADGRRTAYSDSVK,GNVAGTFDT,400 pM,6 of 6,0 of 18

The authors' rule: three or more of the six replicates give a measured affinity, fewer mean a poor binder. Values of this round are not directly comparable with the first-round values of the same sequences. Background: pairings of all heavy chain designs with three empty control strains gave a value in 1% of cases (median 120 nM, 5th percentile 7.0 nM). Values in that range, when seen in few replicates, are hard to tell from nonspecific mating. Also given: how often the same scFv was detected with the empty control strains.

Reference: Li et al. 2023, doi:10.1038/s41467-023-39022-2. File: FLAb, binding data.